Assay results reported in ChEMBL document CHEMBL1134475, “3-(4-Fluoropiperidin-3-yl)-2-phenylindoles as high affinity, selective, and orally bioavailable h5-HT(2A) receptor antagonists” (J Med Chem, 2001).

The chains behind the UniProt entries cited, without tags or fusion partners. Where a name states a change or a piece, a line headed by the entry shows the natural chain unless it says otherwise.
UniProt Q12809: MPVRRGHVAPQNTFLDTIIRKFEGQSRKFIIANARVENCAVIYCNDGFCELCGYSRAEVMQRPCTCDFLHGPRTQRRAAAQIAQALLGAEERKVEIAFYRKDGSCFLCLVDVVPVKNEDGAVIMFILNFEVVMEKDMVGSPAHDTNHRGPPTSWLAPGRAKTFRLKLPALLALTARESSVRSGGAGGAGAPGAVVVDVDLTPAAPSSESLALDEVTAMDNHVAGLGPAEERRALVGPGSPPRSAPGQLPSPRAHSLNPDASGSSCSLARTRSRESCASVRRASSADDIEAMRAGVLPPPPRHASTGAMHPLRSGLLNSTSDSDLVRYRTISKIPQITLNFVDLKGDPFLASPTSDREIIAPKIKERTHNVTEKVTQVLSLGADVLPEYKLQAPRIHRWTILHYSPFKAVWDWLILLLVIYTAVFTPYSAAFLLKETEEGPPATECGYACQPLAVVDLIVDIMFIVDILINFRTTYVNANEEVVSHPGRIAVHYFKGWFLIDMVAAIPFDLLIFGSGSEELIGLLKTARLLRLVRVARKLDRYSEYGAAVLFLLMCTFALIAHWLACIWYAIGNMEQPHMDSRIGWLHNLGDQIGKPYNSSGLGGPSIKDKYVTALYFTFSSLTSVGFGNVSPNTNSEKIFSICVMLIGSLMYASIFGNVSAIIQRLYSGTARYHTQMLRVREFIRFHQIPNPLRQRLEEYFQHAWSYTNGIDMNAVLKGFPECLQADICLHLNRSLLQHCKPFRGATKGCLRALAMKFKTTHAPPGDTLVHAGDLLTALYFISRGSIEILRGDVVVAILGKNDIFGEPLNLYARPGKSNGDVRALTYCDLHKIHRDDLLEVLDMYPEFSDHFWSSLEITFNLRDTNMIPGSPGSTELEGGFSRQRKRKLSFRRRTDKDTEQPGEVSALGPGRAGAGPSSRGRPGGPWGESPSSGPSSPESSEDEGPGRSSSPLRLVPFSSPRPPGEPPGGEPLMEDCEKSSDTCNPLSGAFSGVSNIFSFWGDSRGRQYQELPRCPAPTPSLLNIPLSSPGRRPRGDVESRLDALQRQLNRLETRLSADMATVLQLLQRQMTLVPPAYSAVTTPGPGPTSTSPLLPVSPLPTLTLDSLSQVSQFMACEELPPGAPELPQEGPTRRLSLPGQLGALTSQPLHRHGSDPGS

Molecular target: Voltage-gated inwardly rectifying potassium channel KCNH2 (Homo sapiens, UniProt Q12809)
Assay: Displacement of [3H]dofetilide from HEK cells expressing hERG voltage dependent IKr potassium channel Kv11.1

| SMILES | Ki [µM] |
| --- | --- |
| CN1CCCCC1c1c(-c2ccccc2)[nH]c2ccccc12 (stereo unspecified) | 7 |
| Fc1ccc2c([C@@H]3CNCC[C@H]3F)c(C3CCCCC3)[nH]c2c1 | 5.4 |
| c1ccc(-c2[nH]c3ccccc3c2C2CCCNC2)cc1 (stereo unspecified) | 4.9 |
| COC(=O)c1[nH]c2cc(F)ccc2c1[C@@H]1CNCC[C@H]1F | 8.2 |
| F[C@@H]1CCNC[C@H]1c1c(-c2ccccc2)[nH]c2ccccc12 | > 1.1 |
| Fc1ccc2c([C@@H]3CNCC[C@H]3F)c(-c3cccnc3)[nH]c2c1 | 2.5 |
